## Measured affinities in a library of Ab-95 light chain variants

Values reported by Engelhart et al. 2022, doi:10.1038/s41597-022-01779-4 (FLAb copy).

Target peptide (SARS-CoV-2 spike, HR2 region): PDVDLGDISGINAS

The variants keep the heavy chain, the linker and the frameworks of Ab-95 (scFv order VH, three GGGGS repeats, VL).
VH: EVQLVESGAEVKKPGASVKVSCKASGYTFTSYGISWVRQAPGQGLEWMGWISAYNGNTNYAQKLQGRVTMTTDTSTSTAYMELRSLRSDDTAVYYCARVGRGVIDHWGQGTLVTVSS
VL: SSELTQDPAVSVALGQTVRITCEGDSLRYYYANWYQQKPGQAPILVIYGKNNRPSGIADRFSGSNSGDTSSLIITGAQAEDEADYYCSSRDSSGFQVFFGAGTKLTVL

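The parent was found by panning a naive human phage display library on the peptide. AAYL52 was designed without a model: most single CDR substitutions and a random sample of double and triple ones. The assay is AlphaSeq: two haploid yeast populations carry antibody and antigen on their surface. Mating (16 h, 30 °C) was followed by selection of diploids and sequencing of their barcodes. Each replicate has its own calibration line, from reference interactions of the BCL2 family. Mating was done three times.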

Each variant is given by its three light chain CDRs, as the data file delimits them; those of the parent are EGDSLRYYYAN, GKNNRPS, SSRDSSGFQVF. Affinities are written as log10 Kd with Kd in nM; a lower number is a better binder. Where no diploid with the target was found in that replicate, the entry reads "ND": below detection, most likely a poor binder, though not proof of it. Parent in this assay: reference entry 2.31, copy in this library 2.25. As a blank, each scFv also met three strains without target: over library AAYL52, 28% of these pairings were detected, typically at 3.91 and seldom below 2.90. The control count says in how many pairings with the empty strains this scFv gave a signal, with their mean in brackets.

CDR-L1	CDR-L2	CDR-L3	log10 Kd, replicates	empty controls
EGDSLRYYYWN	GKFNRPA	SSRDSSGFQVF	3.25 4.93 ND	3 of 9 (3.48)
EGISLRYYVAN	GKNNRPS	SSRDSSVFQVF	4.70 ND 4.28	5 of 9 (3.79)
EGDSLRYYQAN	GTNNRPE	SSRDSSGFQVF	0.79 0.87 0.27	2 of 9 (4.00)
ESDSLRYYIAM	GKNNRPS	SSRDSSGFQVF	ND ND ND	3 of 9 (3.62)
DGDSLRYYKAN	GKNNRPS	SSRDSSGWQVF	2.33 2.14 ND	6 of 9 (4.07)
ENDSLNYYYAN	KKNNRPS	SSRDSSGFQVF	ND ND ND	3 of 9 (4.12)
EGDSLRYYAAN	GKGNRPS	MSRDSSGFQVF	0.93 0.75 0.40	2 of 9 (4.16)
SGDSLRYYVAN	GKNNRPS	SSRDSSGFQQF	3.34 3.14 2.91	2 of 9 (3.62)
EGDSLRYYYAN	LKNNRPS	SSKDNSGFQVF	ND 3.72 ND	1 of 9 (4.14)
EGDSLLFYYAN	GKNNRPV	SSRDSSGFQVF	2.93 2.63 2.41	3 of 9 (4.44)
MGDSLRYYYAN	GDNNRPS	SSRDSSGFTVF	2.92 2.57 2.30	2 of 9 (4.72)
EGDSLREYHAN	GKNNRPS	NSRDSSGFQVF	1.92 1.91 1.41	5 of 9 (4.04)
EGDQLRYYYKP	GKNNRPS	SSRDSSGFQVF	4.02 ND ND	4 of 9 (3.85)
EGDSLRYYYAN	VKNNAPS	SSRMSSGFQVF	2.88 ND 3.00	0 of 9
EGDSLRFYYAN	GKNCRPS	SSRDSSGFQVF	4.26 ND ND	1 of 9 (3.77)
PGDSLRYDYAN	GKNNRPS	SSRDSSGFMVF	ND ND ND	2 of 9 (4.57)
EGDSLCYYYAN	GKNNRES	SSRDSSGFQVF	3.72 3.09 3.63	0 of 9
EGDSLHYYYAN	GKRNRPS	SSRHSSGFQVF	3.88 5.92 4.23	4 of 9 (3.72)
EGDSLRYYYAN	GKNNRPS	GSRSSSGFQVL	2.51 2.71 2.26	0 of 9
EGDSVRYYYAN	GKNCRPS	SSRDSSGFQVL	4.30 ND 4.44	0 of 9
EGDSLRYYYAN	GKNNHPS	SSKDASGFQVF	3.14 3.44 2.75	5 of 9 (3.69)
EGDSLRYYYAN	DKSNRPS	SSRKSSGFQVF	3.22 ND ND	4 of 9 (4.50)
EADSLRYYYAN	GSNNRPS	SSRDSSGFQVF	3.51 4.09 4.06	6 of 9 (3.43)
EGWSLRYYYAN	GKNNRPS	SSDDSSPFQVF	ND ND ND	0 of 9
EGDTLAYYYAN	GKNNRPS	SDRDSSGFQVF	ND ND ND	0 of 9
EGDSLRQYYYN	GKNNRPS	SSRDMSGFQVF	3.83 ND ND	2 of 9 (4.44)
EGDSLRYYYAN	GKNNRPK	SSRPSIGFQVF	ND ND ND	2 of 9 (3.83)
EGDSLRYYYAN	GKWNRPS	SMRDSSGFVVF	ND 4.51 ND	1 of 9 (3.60)
ECDSLRLYYAN	GHNNRPS	SSRDSSGFQVF	4.02 3.79 3.92	4 of 9 (3.92)
EGESLRYYSAN	GKNNRPS	SSRDSSGFGVF	2.13 2.20 2.02	3 of 9 (3.38)
EGDDWRYYYAN	GKNTRPS	SSRDSSGFQVF	2.23 2.61 2.77	2 of 9 (3.39)
EGDSVRYYYAN	GKNNRPS	GSRDSSGFKVF	2.90 3.76 3.57	3 of 9 (3.61)
EGDSLRCCYAN	GKGNRPS	SSRDSSGFQVF	2.38 2.39 1.81	5 of 9 (4.04)
EGDSLRYYYAW	RKNNRPK	SSRDSSGFQVF	ND ND ND	2 of 9 (3.96)